CycPeptMPDB entries from one study

Collected by the curators of CycPeptMPDB (Li et al. 2023) from Townsend et al. 2020, doi:10.26434/chemrxiv.13335941.v1.

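Lipid, pH, incubation time, direction and concentration are not recorded in the data file. The list need not hold all peptides of the study. Peptides that the database sets to -10, its floor, are left out.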

PAMPA measures passive passage through an artificial lipid membrane. Permeability is given as log10 of P in cm/s; higher (less negative) is more permeable.

{"smiles": "CC(C)C[C@@H]1NC(=O)[C@@H](C)NC(=O)[C@H]2CCCN2C(=O)[C@H](Cc2ccccc2)NC(=O)CN(Cc2ccccc2)C(=O)[C@@H]2CCCN2C(=O)CN(Cc2ccccc2)C1=O", "PAMPA (log10 cm/s)": "-5.49"}
{"smiles": "CC(C)C[C@@H]1C(=O)N2CCC[C@H]2C(=O)N(C)[C@H](CC(C)C)C(=O)N[C@@H](Cc2ccccc2)C(=O)N2CCC[C@H]2C(=O)N[C@@H](Cc2ccccc2)CC(=O)N(C)[C@@H](CC(C)C)C(=O)N1C", "PAMPA (log10 cm/s)": "-5.25"}
{"smiles": "CC(C)C[C@@H]1NC(=O)[C@@H](C)NC(=O)[C@H]2CCCN2C(=O)[C@H](Cc2ccccc2)NC(=O)[C@@H](CC(C)C)NC(=O)[C@@H]2CCCN2C(=O)CN(Cc2ccccc2)C1=O", "PAMPA (log10 cm/s)": "-6.69"}
{"smiles": "CC(C)C[C@@H]1NC(=O)[C@@H](CC(C)C)N(C)C(=O)C[C@H](Cc2ccccc2)NC(=O)[C@@H]2CCCN2C(=O)[C@H](Cc2ccccc2)NC(=O)[C@@H](CC(C)C)NC(=O)[C@@H]2CCCN2C1=O", "PAMPA (log10 cm/s)": "-5.62"}
{"smiles": "CC(C)C[C@H]1NC(=O)[C@@H](C)NC(=O)[C@H]2CCCN2C(=O)[C@H](Cc2ccccc2)NC(=O)[C@H](CC(C)C)N(C)C(=O)[C@H]2CCCN2C(=O)[C@H](CC(C)C)N(C)C1=O", "PAMPA (log10 cm/s)": "-5.86"}
{"smiles": "CCCN1CC(=O)N[C@H](CC(C)C)C(=O)N[C@H](CC(C)C)C(=O)N2CCC[C@@H]2C(=O)N(C)[C@H](CC(C)C)C(=O)N[C@@H](Cc2ccccc2)C(=O)N2CCC[C@H]2C1=O", "PAMPA (log10 cm/s)": "-5.81"}
{"smiles": "CCCN1CC(=O)N(C)[C@@H](CC(C)C)C(=O)N(C)[C@H](CC(C)C)C(=O)N2CCC[C@@H]2C(=O)N(Cc2ccccc2)CC(=O)N[C@@H](Cc2ccccc2)C1=O", "PAMPA (log10 cm/s)": "-5.10"}
{"smiles": "CC(C)C[C@H]1NC(=O)C[C@H](Cc2ccccc2)NC(=O)[C@H]2CCCN2C(=O)[C@H](Cc2ccccc2)NC(=O)[C@@H](CC(C)C)NC(=O)[C@H]2CCCN2C(=O)[C@@H](CC(C)C)NC1=O", "PAMPA (log10 cm/s)": "-5.85"}
{"smiles": "CC(C)C[C@@H]1NC(=O)[C@H](CC(C)C)N(C)C(=O)[C@H](C)N(C)C(=O)[C@@H]2CCCN2C(=O)[C@H](Cc2ccccc2)NC(=O)[C@H](CC(C)C)N(C)C(=O)[C@@H]2CCCN2C1=O", "PAMPA (log10 cm/s)": "-5.16"}
{"smiles": "CC(C)C[C@@H]1C(=O)N(C)[C@@H](CC(C)C)C(=O)N2CCC[C@H]2C(=O)N(C)[C@@H](CC(C)C)C(=O)N[C@@H](Cc2ccccc2)C(=O)N2CCC[C@@H]2C(=O)N[C@@H](C)C(=O)N1C", "PAMPA (log10 cm/s)": "-6.03"}
{"smiles": "CC(C)C[C@@H]1NC(=O)[C@H](CC(C)C)N(C)C(=O)[C@@H](C)N(C)C(=O)[C@H](Cc2ccccc2)NC(=O)[C@@H](CC(C)C)NC(=O)[C@@H]2CCCN2C1=O", "PAMPA (log10 cm/s)": "-5.13"}
{"smiles": "CC(C)C[C@@H]1NC(=O)[C@H](C)NC(=O)[C@H](Cc2ccccc2)NC(=O)[C@@H](CC(C)C)N(C)C(=O)[C@@H]2CCCN2C(=O)C[C@H](Cc2ccccc2)NC1=O", "PAMPA (log10 cm/s)": "-6.22"}
{"smiles": "CC(C)C[C@@H]1C(=O)N(Cc2ccccc2)CC(=O)N2CCC[C@@H]2C(=O)N[C@H](CC(C)C)C(=O)N[C@@H](Cc2ccccc2)C(=O)N2CCC[C@H]2C(=O)N[C@@H](Cc2ccccc2)CC(=O)N1C", "PAMPA (log10 cm/s)": "-5.82"}
{"smiles": "CC(C)C[C@@H]1C(=O)N2CCC[C@H]2C(=O)N(Cc2ccccc2)CC(=O)N[C@@H](Cc2ccccc2)C(=O)N(C)[C@H](C)C(=O)N[C@H](CC(C)C)C(=O)N1C", "PAMPA (log10 cm/s)": "-5.13"}
{"smiles": "CC(C)C[C@@H]1NC(=O)[C@H](C)N(C)C(=O)[C@@H]2CCCN2C(=O)[C@H](Cc2ccccc2)NC(=O)[C@H](CC(C)C)N(C)C(=O)[C@H]2CCCN2C(=O)[C@H](CC(C)C)NC1=O", "PAMPA (log10 cm/s)": "-5.57"}
{"smiles": "CC(C)C[C@@H]1C(=O)N(C)[C@@H](CC(C)C)C(=O)N2CCC[C@H]2C(=O)N(C)[C@H](CC(C)C)C(=O)N[C@@H](Cc2ccccc2)C(=O)N2CCC[C@@H]2C(=O)N[C@@H](C)C(=O)N1C", "PAMPA (log10 cm/s)": "-5.17"}

Extract of 2 entries:

{"smiles": "CC(C)C[C@H]1NC(=O)C[C@H](Cc2ccccc2)NC(=O)[C@H]2CCCN2C(=O)[C@H](Cc2ccccc2)NC(=O)[C@@H](CC(C)C)NC(=O)[C@H]2CCCN2C(=O)[C@@H](CC(C)C)NC1=O", "PAMPA (log10 cm/s)": "-5.85"}
{"smiles": "CC(C)C[C@@H]1C(=O)N(C)[C@@H](CC(C)C)C(=O)N2CCC[C@H]2C(=O)N(C)[C@@H](CC(C)C)C(=O)N[C@@H](Cc2ccccc2)C(=O)N2CCC[C@@H]2C(=O)N[C@@H](C)C(=O)N1C", "PAMPA (log10 cm/s)": "-6.03"}